These results are taken from publication PMC7059547, “Synthesis and herbicidal activities of aryloxyacetic acid derivatives as HPPD inhibitors” (Beilstein Journal of Organic Chemistry, 2020).

Amino acid sequences for entries named in this document (tags omitted).
UniProt P93836, whole entry: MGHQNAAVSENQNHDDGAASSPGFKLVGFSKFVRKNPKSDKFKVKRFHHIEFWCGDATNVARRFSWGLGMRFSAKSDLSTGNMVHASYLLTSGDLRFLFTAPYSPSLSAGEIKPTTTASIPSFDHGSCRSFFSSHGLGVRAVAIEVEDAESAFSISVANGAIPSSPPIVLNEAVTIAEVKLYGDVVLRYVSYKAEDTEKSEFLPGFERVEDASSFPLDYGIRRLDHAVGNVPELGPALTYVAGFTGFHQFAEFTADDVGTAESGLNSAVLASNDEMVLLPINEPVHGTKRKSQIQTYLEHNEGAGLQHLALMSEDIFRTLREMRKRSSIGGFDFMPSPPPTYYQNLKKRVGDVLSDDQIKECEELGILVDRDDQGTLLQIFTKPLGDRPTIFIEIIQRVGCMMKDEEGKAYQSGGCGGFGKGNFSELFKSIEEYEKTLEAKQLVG

For assay [1], the system named is E. crus-galli, S. faberii, D. sanguinalis, A. retroflexus, E. prostrata, A. juncea. The experiment in a line: Post-emergence greenhouse herbicidal activity. Conditions: 150 g ai/ha, sum over six weeds (AJ, AR, EP, DS, EC, SF), 18 days after treatment. Further details: scale not given here. In kind it is in vivo.
Assay [2] deals with Arabidopsis thaliana HPPD (AtHPPD) (Arabidopsis thaliana, UniProt P93836). As to the kind of experiment: AtHPPD enzyme inhibition study. In kind it is biochemical. Conditions: read-out: AtHPPD inhibition Ki. As to the method: AtHPPD was prepared and puriﬁed according to the reported methods in the literature [19–2035–37].

In the case of `Cc1nn(C)c(O)c1C(=O)COc1ccc2ccccc2c1Br`, in assay [1], the “Sum of inhibition rate” value came out at 30. Further, the Ki (usually a dissociation constant, usually derived from enzyme kinetics or from competition with a known ligand) in assay [2] came to 2200 nM.
Taken in the same sequence, the figures for `CC1(C)CC(=O)C(C(=O)COc2ccc3ccccc3c2Br)=C(O)C1` were 160 and 2500 nM.
`Cn1nc(C2CC2)c(C(=O)COc2ccc3ccccc3c2Br)c1O`: the “Sum of inhibition rate” value in assay [1] is reported as 20. Besides, the inhibition constant (Ki) in assay [2] was 2200 nM.
